High-throughput results deposited in PubChem BioAssay by National Center for Advancing Translational Sciences (NCATS).
Sampled rows, rich in hits. Any-hit rate of the full collection: about 1.1%.
p53 reactivation = restores transcriptional activity of mutant p53; 0.063% of 320,000 active; H1299 p53-A138V BP100-luciferase reporter, luminescence, 24 h; Potency, µM (top dose mostly 92.2 µM), usual class: activators; note: nearly all actives have a fitted effect of over 45% in size
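p53-null H1299 cells stably carrying temperature-sensitive p53-A138V and a BP100-luciferase reporter were pinned with compounds (4-point, 1:5 series) and held 24 hrs at 37 deg C. Luminescence was read 10 min after detection reagent.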
Apoferritin bind = candidate novel general anesthetic via apoferritin binding; Potency, µM (titrated, usually from 77.5 µM), hits mostly inhibitors; 0.074% of 350,000 active; AID 485281; apoferritin/1-aminoanthracene competitive binding, fluorescence; P02791; note: nearly all actives have a fitted effect of over 20% in size
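Concentration-response curves derived by four-parameter Hill fitting of normalized fluorescence, where compounds displaced 1-AMA from 10 uM horse apoferritin following a brief 10 min room-temperature incubation; propofol titration acted as positive control.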
miR-21 FLuc = raises the signal of a miR-21 reporter | HeLa miR-21 FLuc reporter, luciferase, 48 h | Potency, µM (doses to about 38.3 µM) | 340,000 tested, under 10 active | AID 2288; active = well fitted rising curve with a large enough effect; inconclusive = small, poorly fitted or top-dose-only effect; inactive = no such curve, though single readings can be large or run the other way;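 note: miR-21 action dims this reporter so a rising signal means less miR-21 action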
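Compounds were titrated across several concentrations (up to approximately 40 uM) and incubated 48 hours with HeLa miR-21-FLuc reporter cells (miR-21 target sequence downstream of FLuc, endogenous miR-21). Readout was firefly luciferase luminescence after lytic detection reagent.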
BRCA1 expr act = increases BRCA1 expression; MCF7-BRCA1-FFLuc reporter, luminescence, 48 h; response scale: scaled: vehicle 0%, 10 µM genistein 100%; AID 624202; Potency, µM (titrated, usually from 46.1 µM), most hits filed as activators; 1.1% of 380,000 active; note: nearly all actives have a fitted effect of over 80% in size
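Quantitative HTS in MCF7 cells stably reporting BRCA1 expression via firefly luciferase. Compound treatment lasts 48 h at 37 °C in phenol-red free MEM. Activation is expressed relative to genistein at 10 microM and DMSO.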
A number is an active result; - = inactive; ? = inconclusive; . = not tested or not shown. Unless noted, calls come from the whole dose curve; as a rule, active = well fitted curve in the direction sought with a large enough effect; inconclusive = small, poorly fitted or top-dose-only effect, or another doubt; inactive = no such curve, though single readings can be large; an effect the other way counts as inactive or inconclusive.

SMILES	p53 reactivation	Apoferritin bind	miR-21 FLuc	BRCA1 expr act
Cc1ccc2oc(=O)c3cc(C(=O)Nc4cccc(C#N)c4)sc3c2c1	.	-	-	-
COc1cc(SC)ccc1C(=O)NCCOc1ccc(F)cc1	?	-	-	10µM
COc1cc(/C=C2\C(=O)N(c3cccc(C(=O)O)c3)N=C2C)ccc1OCc1ccccc1	.	.	.	7.08µM
C#CCOc1ccc(/C=C2/C(=O)N(c3cccc(C(=O)O)c3)N=C2C)cc1OC	-	-	-	-
Clc1ccc(CNc2ncnc3nc[nH]c23)cc1	.	.	.	-
Cn1c(SCCOc2ccccc2Cl)nnc1-c1cccs1	-	-	-	-
Cn1c(SCc2c(F)cccc2Cl)nnc1-c1cccs1	?	-	-	3.98µM
COc1ccc(NC(=O)C2=C(C)Nc3nc(SCc4ccccc4C)nn3C2c2cc(OC)c(O)c(OC)c2)cc1 (stereo unspecified)	.	-	-	.
Cc1cc(C)c2c(c1)c(C)cc1nnc(SCC(=O)c3ccccc3)n12	.	-	-	.
CNc1cccc(-c2ccc(C(C)=O)s2)n1	.	.	.	6.31µM
CNc1cccc(-c2ccccc2C(C)=O)n1	.	.	.	-
CC1CN(c2ncnc3c2cnn3-c2ccc(Cl)cc2)CC(C)O1 (stereo unspecified)	?	-	-	3.16µM
O=C(NCc1ccccc1)c1cc(-c2ccco2)on1	?	-	-	11.2µM
O=C(NCCc1ccccc1)c1cc(-c2ccco2)on1	?	-	-	?
Clc1ccc(-c2nc3ccccc3[nH]2)cn1	-	-	-	-
Cc1ccc(-c2nc3ccccc3[nH]2)cn1	-	-	-	7.94µM
O=C(COC(=O)c1ccncc1)Nc1cc(S(=O)(=O)N2CCOCC2)ccc1Cl	-	.	.	-
Cc1nc(-c2cccc(NC(=O)Nc3ccc([N+](=O)[O-])cc3)c2)no1	.	-	?	-
O=C(CSc1ccc(-c2cccs2)nn1)N1CCCCCC1	?	-	-	12.6µM
O=C(CSc1ccc(-c2cccs2)nn1)N1CCCCC1	?	-	-	-
O=C(CSCc1ccco1)N1CCc2ccccc21	?	?	-	2.51µM
O=C(NCCC(=O)N1CCc2ccccc21)c1ccco1	?	-	-	8.91µM
COc1ccc2c(c1)c1c(c(=O)n(-c3cccc(Cl)c3)c(=O)n1C)n2C	.	-	-	-
COc1ccc(NC(=O)c2cn(-c3ccccc3)nc2-c2cc3ccccc3o2)cc1	-	-	-	-
OCc1cn(-c2ccccc2)nc1-c1cc2ccccc2o1	-	-	-	2.51µM
SMILES	p53 reactivation	Apoferritin bind	miR-21 FLuc	BRCA1 expr act
Cc1cccc(C(=O)O/N=C/c2ccc(Br)cc2)c1	-	?	-	-
COc1cccc(C(=O)O/N=C/c2ccc(Sc3ccc(C)cc3)nc2)c1	-	-	-	7.08µM
Nc1nc(N)nc(-c2cccc(Br)c2)n1	.	.	.	12.6µM
CC(=O)Nc1ccc(OCc2cccc([N+](=O)[O-])c2)cc1	-	?	-	?
CC(=O)Nc1ccc(Oc2ccc([N+](=O)[O-])cc2Cl)cc1	-	15.8µM	-	-
CC(=O)Nc1ccc(C=CC=Cc2cccc([N+](=O)[O-])c2)cc1	.	.	.	5.01µM
O=C(CNC(=O)c1ccc(Br)o1)NNC(=O)c1ccccc1O	-	.	.	-
Cc1c(CC(=O)NCCc2ccccc2F)c(=O)oc2cc(O)c(Cl)cc12	.	-	-	.
N#Cc1c(-n2ncnc2-c2ccc(Br)cc2)sc2c1CCCCC2	.	?	-	.
CCN(CC)c1ccc(/C=N/Nc2nn[nH]n2)cc1	-	-	-	-
CCN(CC)c1ccc(C=N/C(C#N)=C(\N)C#N)cc1	?	?	-	2.51µM
CC(C)(C)OC(=O)N/N=C\c1ccc(OC(=O)c2ccco2)cc1	-	-	-	7.94µM
COCC(O)Cn1ccnc1N=Nc1ccccc1 (stereo unspecified)	.	.	.	-
CCOC(=O)c1c(C)[nH]c(C=Nc2ccc(OC)cc2)c1O	?	-	-	6.31µM
CCOC(=O)c1c(C)[nH]c(N=Nc2ccc(OC)cc2)c1C	-	-	-	6.31µM
COc1cc2[nH]cc(C(=O)NCCc3ccccc3)c(=O)c2cc1OC	-	-	-	-
COc1cccc2c(=O)c(C(=O)NCCc3ccccc3)c[nH]c12	.	.	.	10µM
Fc1cccc2sc(N3CCCCC3)nc12	?	-	-	12.6µM
Fc1cccc2sc(N3CCOCC3)nc12	?	-	-	-
COc1cc(C(=O)NCc2nc(-c3ccc(Cl)cc3)no2)cc(OC)c1OC	.	-	-	.
Cc1cc(C)n(-c2nc(NC(C)C)nc(NC(C)(C)C)n2)n1	.	.	.	-
CC(=O)c1cnc2c(-c3ccc(Cl)cc3)cnn2c1C	?	-	-	3.55µM
O=C(O)c1cnn(-c2nc(-c3ccc(Br)cc3)cs2)c1C(F)(F)F	?	-	-	5.01µM
O=C(O)c1cnn(-c2nc(-c3ccc(F)cc3)cs2)c1C(F)(F)F	-	-	-	-
O=Nc1c(O)c2ccccc2c2ccccc12	.	.	.	-
SMILES	p53 reactivation	Apoferritin bind	miR-21 FLuc	BRCA1 expr act
O=c1c(=Nc2ccccc2O)c(=O)c2ccccc12	-	?	-	11.2µM
COc1cccc2[nH]c(=O)c(-c3ccccc3)cc12	?	-	-	3.16µM
CN(Cc1c(F)cccc1Cl)C(=O)CNC(=O)c1cccs1	-	-	-	11.2µM
COc1ccc(/C=C/C(=O)Nc2cccc(S(=O)(=O)NC3=NCCCCC3)c2)cc1	-	-	-	7.94µM
N/C(=N\OC(=O)c1ccccc1[N+](=O)[O-])c1ccccn1	?	-	-	5.01µM
N/C(=N\OC(=O)CSc1ccccc1)c1ccccn1	-	?	-	6.31µM
O=C(CNS(=O)(=O)c1ccc(Br)cc1)NCc1cccnc1	-	-	-	-
COc1ccc(C(=O)NCCn2cc(SCC(=O)Nc3ccc4c(c3)OCCO4)c3ccccc32)cc1	.	-	-	-
CCn1cc(C(=O)NCCCOC)c(=O)c2cc(S(=O)(=O)N3CCc4ccccc4C3)ccc21	.	-	-	-
CN(C)c1nc(N)c(C#N)c(C#N)c1C#N	.	.	.	-
CNc1cncc(-c2cccc(O)c2)n1	.	.	.	-
CNc1cccc(-c2cccc(O)c2)n1	.	.	.	10µM
Clc1ccc(OCc2nc(-c3ccncc3)no2)c(Br)c1	?	-	-	3.98µM
Cc1ccc(OCc2nc(-c3ccccn3)no2)c(Br)c1	-	?	-	?
Clc1ccccc1OCc1nc(-c2ccncc2)no1	?	-	-	5.01µM
c1ccc(OCc2nc(-c3ccncc3)no2)cc1	-	-	-	11.2µM
Cc1cc(NC(=O)c2ccccc2F)ccc1-c1nc2ccccc2s1	.	-	-	.
O=C1CNC(=S)N1c1nc(-c2ccccc2)cs1	10µM	-	-	-
c1ccc(-c2ccc(OCCOCCn3cncn3)cc2)cc1	?	-	-	7.08µM
c1ccc(Cc2ccc(OCCn3cncn3)cc2)cc1	-	-	-	-
CCOc1ccccc1NC(=O)C1CCN(S(=O)(=O)c2cccs2)CC1	.	-	-	.
